## AlphaSeq binding of Ab-14 heavy chain variants to a spike HR2 peptide

The measurements come from Li et al. 2023 (doi:10.1038/s41467-023-39022-2) through the FLAb antibody collection.

All variants were tested on one target, the spike HR2 peptide PDVDLGDISGINAS (SARS-CoV-2).

Parent: Ab-14, a human scFv built as VH, a 15-residue (Gly4Ser)3 linker, VL. Only the CDRs of the heavy chain vary.
VH: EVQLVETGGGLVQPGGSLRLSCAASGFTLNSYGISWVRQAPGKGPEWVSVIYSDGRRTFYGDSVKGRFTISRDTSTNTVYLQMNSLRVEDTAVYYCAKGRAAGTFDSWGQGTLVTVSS
VL: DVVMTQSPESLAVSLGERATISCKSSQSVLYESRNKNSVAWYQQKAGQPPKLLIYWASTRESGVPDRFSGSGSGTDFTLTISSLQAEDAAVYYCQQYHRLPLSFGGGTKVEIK

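The parent was found by panning a naive human phage display library on the peptide. Designed CDR sequences, proposed from the first random library and measured here. Their group label is 14H_En_HC (En: ensemble of fine-tuned language models; HC: hill climbing; a sequence that several methods proposed may carry one label only). AlphaSeq pools MATa yeast showing the antibodies with MATalpha yeast showing the peptide. Pairs that bind mate more often; barcode pairs of the diploids are counted by sequencing. The ratio of observed to expected reads was calibrated, replicate by replicate, on BCL2-family standards whose Kd was known from biolayer interferometry. The assay was run in six technical replicates.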

The parent's heavy chain CDRs are GFTLNSYGIS, VIYSDGRRTFYGDSVK, GRAAGTFDS; each variant's own CDRs replace them letter for letter. The read-out is the apparent dissociation constant on a log10 scale (nM): the lower, the stronger. A mean of the replicates is given; it leaves out those without a signal. An entry "n.d." has no value in the source: the pair was not observed among the diploids in that replicate. This suggests poor binding but is not conclusive. Empty control strains, which show no peptide, gave a signal in 1% of pairings with all heavy chain designs; the median was 2.08 and 95% of these signals were weaker than 0.84. No background was subtracted. For each scFv, signals with the empty controls are counted beside the result, with their mean in brackets. In the paper, a design with two or fewer of six values counts as a poor binder. Values of this round are not directly comparable with the first-round values of the same sequences.

CDR-H1 | CDR-H2 | CDR-H3 | log10 Kd (nM) by replicate | log10 Kd (nM), mean | signal with controls
GFDLNEYGIS | VIYADGMRTSYKDSVK | GEAAGTFDV | 0.03 / -0.19 / -0.16 / 0.75 / -0.07 / 0.57 | 0.15 | 0 of 18
GFDLNEYGIS | VIYADGRRTAYIDSVK | GEVAGTFDL | -1.14 / -1.23 / -0.89 / -0.58 / -1.27 / -1.03 | -1.02 | 0 of 18
GFDLNEYGIS | VIYADGRRTFYTDSVK | GEVAGTFDT | -0.01 / -0.52 / -0.75 / -0.75 / -0.71 / -0.16 | -0.48 | 0 of 18
GFDINEYGIS | VIYADGRRTQYADSVK | GEAAGTFDT | 0.45 / -0.38 / -0.13 / -0.03 / -0.48 / 0.37 | -0.03 | 0 of 18
GFDLNEYGIS | VIYADGRRTYYSDSVK | GEQAGTFDV | -0.43 / -0.24 / -0.36 / -0.84 / -0.43 / -0.01 | -0.39 | 0 of 18
GFDLEDYGIS | VIYADGKRTFYADSVK | GNVAGTFDV | -0.49 / -0.63 / -0.63 / -0.70 / -0.52 / -0.35 | -0.55 | 0 of 18
GFDLNEYGIS | VIYADGMRTFYVDSVK | GQVAGTFDV | -0.33 / -0.67 / -0.61 / -0.65 / -0.78 / -0.76 | -0.64 | 0 of 18
GFDLEDYGIS | VIYADGRRTQYADSVK | GELAGTFDL | 0.89 / 0.38 / 0.81 / 1.09 / 1.13 / 1.01 | 0.88 | 0 of 18
GFDLNEYGIS | VIYADGQRTFYADSVK | GEAAGTFDS | -0.87 / -0.89 / -1.00 / -1.28 / -1.10 / -0.66 | -0.97 | 0 of 18
GFSLDEYGIS | VIYADGMRTFYADSVK | GNSAGTFDS | 0.68 / 1.67 / 0.61 / 0.93 / 0.09 / 0.07 | 0.67 | 0 of 18
GFDLNEYGIS | VIYADGRRTFYADSVK | GKAAGTFDV | -0.31 / -0.66 / -0.75 / -1.08 / -1.03 / -0.69 | -0.76 | 1 of 18 (1.64)
GFDLEEYGIS | VIYADGRRTFYSDSVK | GENAGTFDI | -0.07 / -0.08 / -0.33 / -0.68 / -0.14 / 0.09 | -0.20 | 0 of 18
GFDLNEYGIS | VIYADGFRTFYTDSVK | GEVAGTFDF | -0.86 / -0.33 / -0.69 / -0.94 / -0.65 / -0.67 | -0.69 | 0 of 18
GFNLNEYGIS | VIYADGRRTFYSDSVK | GETAGTFDV | -0.20 / -0.12 / -0.37 / -0.49 / -0.49 / -0.30 | -0.33 | 0 of 18
GFQLDEYGIS | VIYADGRRTFYQDSVK | GEVAGTFDM | 0.23 / 0.06 / 0.11 / -0.10 / 0.24 / 0.26 | 0.13 | 0 of 18
GFDLNEYGIS | VIYADGRRTFYADSVK | GKTAGTFDQ | -0.02 / -0.36 / -0.39 / -0.45 / -0.21 / -0.20 | -0.27 | 0 of 18
GFSLNEYGIS | VIYADGRRTFYADSVK | GNQAGTFDQ | -0.29 / -0.53 / -0.47 / -0.60 / -0.51 / -0.51 | -0.48 | 1 of 18 (1.91)
GFDLNEYGIS | VIYADGRRTFYSDSVK | GHIAGTFDQ | -0.60 / -0.38 / -0.67 / -0.22 / -0.79 / -0.03 | -0.45 | 0 of 18
GFDLNEYGIS | VIYADGRRTFYADNVK | GEVAGTFNV | -0.63 / -0.49 / -0.68 / -0.75 / -0.57 / -0.44 | -0.59 | 0 of 18
GFDLNEYGIS | VIYADGRRTAYADSVK | GQVAGTFNV | 0.56 / 0.38 / -0.05 / 0.26 / 0.05 / 0.02 | 0.20 | 0 of 18
GFGLDEYGIS | VIYADGRRTFYADSVK | GEVAGTFDM | -0.19 / -0.65 / -0.34 / -0.57 / -0.59 / -0.46 | -0.47 | 0 of 18
GFSLNEYGIS | VIYADGRRTFYADSVK | GNVAGTFDQ | -0.47 / -0.33 / -0.05 / -0.56 / -0.34 / 0.09 | -0.28 | 0 of 18
GFDLNEYGIS | VIYADGRRTFYDDSVK | GKNAGTFDQ | 0.12 / -0.24 / -0.55 / -0.58 / -0.21 / -0.19 | -0.28 | 0 of 18
GFDLDEYGIS | VIYADGRRTFYADSVK | GELAGTFFD | -0.12 / -0.47 / -0.66 / -0.63 / -0.40 / -0.21 | -0.42 | 0 of 18
GFDLNEYGIS | VIYADGRRTFYADSVK | GNTAGTFLM | -0.13 / -0.21 / -0.61 / -0.88 / -0.52 / -0.48 | -0.47 | 0 of 18
GFNLNEYGIS | VIYADGRRTFYSDSVK | GENAGTFDS | -0.16 / -0.31 / -0.39 / -0.31 / -0.10 / -0.03 | -0.22 | 0 of 18
GFNLDEYGIS | VIYADGRRTFYSDSVK | GEAAGTFDS | n.d. / 0.10 / -0.63 / 0.17 / -0.05 / n.d. | -0.10 | 0 of 18
GFDLNEYGIS | VIYADGQRTFYIDSVK | GEAAGTFDM | -0.45 / -0.49 / -0.92 / -0.82 / -1.04 / -0.62 | -0.72 | 0 of 18
GFDLNEYGIS | VIYADGRRTFYVDSVK | GSNAGTFDV | -0.70 / -0.76 / -0.90 / -0.92 / -0.96 / -0.65 | -0.82 | 0 of 18
GFDLNEYGIS | VIYADGMRTVYADSVK | GQNAGTFDQ | n.d. / n.d. / n.d. / n.d. / n.d. / n.d. | n.d. | 0 of 18